Reference: PubChem BioAssay AID624418 (National Center for Advancing Translational Sciences (NCATS), 2012)
Only a part is listed here, and it is no random draw. Records with an inconclusive call do not appear. Some salts or complexes appear as unconnected parts, following the source record. Active and inactive are the calls of the source. Calls come from the whole dose curve; as a rule, active = well fitted inhibition curve with a large enough effect; inconclusive = small, poorly fitted or top-dose-only effect, or another doubt; inactive = no such curve, though single readings can be large or run the other way.
% is set by controls: 0 for no effect and ±100 for the full control effect.

Test: qHTS of GLP-1 Receptor Inverse Agonists: Cytotox Screen;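 note: loss of luciferase light is scored as toxicity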
Settings: HEK293 cAMP-luciferase reporter cells, luminescence, 24 h; at 38.3 µM (top of the series)
Text: The overall goal of this project was to develop a novel assay for discovering small molecule ligands for class B1 G protein-coupled receptors (GPCRs). Very few agonists (or inverse agonists) with generally weak activity for this entire group of physiologically important receptors are known to date. To establish proof-of-principle that this critical bottleneck can be overcome with a suitable screening approach, our studies focused on the class B1 receptor for glucagon-like peptide-1 (GLP-1R), a potential therapeutic target for diabetes and neurodegenerative disease.
The assay was developed using a cell-based functional readout. Toward this goal, stably transfected HEK293 cell clones were established that co-express (i) a cAMP-responsive luciferase reporter gene, and (ii) constitutively active GLP-1R that upon ligand interaction inhibit (inverse agonists) the luciferase activity. In addition, two control cell lines were developed: (i) one that express only the cAMP-responsive reporter gene to enable initial exclusion of GLP-1R independent effects of candidate probes; and (ii) one with the reported gene cloned with another constitutively active orphan receptor GPR119 to enable exclusion of GLP-1R independent inhibitor effects of candidate inverse agonists.
To that end, this assay was optimized for 1536-well format and screened against the MLSMR. Then the same collection was run in this cytotoxicity assay where inhibition was the undesired outcome.
NIH Molecular Libraries Probe Production Network [MLPCN]
NIH Chemical Genomics Center [NCGC]
PI Name: Martin Beinborn, Tufts Medical Center
Six ul of cell suspension (200 cells/uL in DMEM + 10% Nu serum + 1% pen-strep) is dispensed in a white solid 1536-well plate. The plates are incubated for 12 hours at 37 deg C at 5% CO2 followed by addition of 23 nL compounds. After 24 hr incubation at 37 deg C and 5% CO2, 3 uL of luciferase assay detection reagent is added. A luminescence read is obtained on the PerkinElmer Viewlux after 12 min incubation at room temperature.
For `CN1CCC(Nc2cccc(F)c2)CC1`, the activity change, negative = inhibition was inactive: -6.07%.
In the case of `O=C(NCC1(N2CCCCC2)CCCCC1)c1cncc(Br)c1`, the activity change, negative = inhibition is reported as inactive: 4.51%.
With `COc1ccc2c(c1O)-c1c(O)c(OC)cc3c1[C@H](C2)[N+](C)(C)CC3.O=[N+]([O-])c1cc([N+](=O)[O-])c([O-])c([N+](=O)[O-])c1[O-]` the activity change, negative = inhibition was inactive: -34.1%.
With `O=C(OC1CN2CCC1CC2)c1ccc([N+](=O)[O-])cc1` (stereo not drawn) the activity change, negative = inhibition was inactive: -17.1%.
In the case of `CCCCn1nnnc1C(c1ccnc2ccccc12)N1CCC(n2c(=O)[nH]c3ccccc32)CC1` (stereo not drawn), the activity change, negative = inhibition is reported as inactive: -11.5%.
In the case of `COc1cc(OC)c(C(=O)NCC2(N(C)C)CCCCC2)cc1OC`, the activity change, negative = inhibition is reported as inactive: 1.33%.
In the case of `O=C(NCC1(N2CCOCC2)CCCCC1)c1cc(F)c(F)cc1Cl`, the activity change, negative = inhibition is reported as inactive: -0.921%.
With `CCC(c1nnnn1C(C)(C)C)N1CCC(n2c(=O)[nH]c3ccccc32)CC1` (stereo not drawn) the activity change, negative = inhibition was inactive: -8.25%.
With `COc1ccc(CN(CCCl)CCCl)cc1Cl` the activity change, negative = inhibition was inactive: -9.68%.
With `CN(C)c1cccc(C(=O)NCC2(N3CCCCC3)CCCCC2)c1` the activity change, negative = inhibition was inactive: -2.92%.
For `CC(C)c1ccc(NC2CCN(C(=O)OC(C)(C)C)CC2)cc1`, the activity change, negative = inhibition was inactive: -1.23%.
For `COc1ccc(NC2CCN(C(=O)OC(C)(C)C)CC2)cc1`, the activity change, negative = inhibition was inactive: -25.2%.
In the case of `CC(C)c1ccc(C(=O)NCC2(N3CCOCC3)CCCCC2)cc1`, the activity change, negative = inhibition is reported as inactive: 10.7%.
For `CN1CCN(CCOC(=O)C(O)(c2ccccc2)c2ccccc2)CC1`, the activity change, negative = inhibition was inactive: 2.96%.
With `CCCCn1nnnc1C(c1cccc2ccccc12)N1CCC(n2c(=O)[nH]c3ccccc32)CC1` (stereo not drawn) the activity change, negative = inhibition was inactive: -11%.
In the case of `O=C(NCC1(N2CCOCC2)CCCCC1)c1cc(=O)[nH]c2ccccc12`, the activity change, negative = inhibition is reported as inactive: -11.6%.
With `COc1cc(C(=O)NCC2(N3CCCCC3)CCCCC2)ccc1OC(F)F` the activity change, negative = inhibition was inactive: 1.85%.
For `O=C(NCC1(N2CCCCC2)CCCCC1)c1cccc(C(F)(F)F)c1`, the activity change, negative = inhibition was inactive: -15.5%.
In the case of `CCCOc1cccc(C(=O)NCC2(N3CCOCC3)CCCCC2)c1`, the activity change, negative = inhibition is reported as inactive: 1.55%.
For `O=[N+]([O-])c1cc([N+](=O)[O-])c(NCC2CCS(=O)(=O)C2)c([N+](=O)[O-])c1` (stereo not drawn), the activity change, negative = inhibition was inactive: -18.4%.
With `CSc1ccc(C(=O)NCC2(N3CCOCC3)CCCCC2)cc1` the activity change, negative = inhibition was inactive: -2.62%.
For `CCOc1ccc(C(=O)NCC2(N3CCOCC3)CCCCC2)cc1`, the activity change, negative = inhibition was inactive: 1.3%.
For `O=C(NCC1(N2CCCCC2)CCCCC1)c1cccc([N+](=O)[O-])c1`, the activity change, negative = inhibition was inactive: 13.1%.
In the case of `CCN1CCC(Nc2ccc(Cl)cc2)CC1`, the activity change, negative = inhibition is reported as inactive: -7.73%.
In the case of `O=c1[nH]c2ccccc2n1C1CCN(C(c2ccccc2OC(F)(F)F)c2nnnn2C2CCCC2)CC1` (stereo not drawn), the activity change, negative = inhibition is reported as inactive: -13.5%.
With `N#CC1(Nc2ccccc2)CCN(CCc2ccccc2)CC1` the activity change, negative = inhibition was inactive: 1.62%.
With `CC(C)(C)n1nnnc1C(c1ccccc1OC(F)(F)F)N1CCC(n2c(=O)[nH]c3ccccc32)CC1` (stereo not drawn) the activity change, negative = inhibition was inactive: -26.6%.
For `O=C(NCC1(N2CCCCC2)CCCCC1)c1ccc(OC(F)F)cc1`, the activity change, negative = inhibition was inactive: 3.2%.
